{"source": "patent US9504729B2", "about": "“Antiangiogenic small molecules and methods of use” (The United States of America, as represented by the …, priority 2009, dated 2016)", "key": {"PAE cells [1]": {"tested_on": "PAE cells", "test": "Growth dose response (IC50) in PAE", "format": "cell-based, porcine", "conditions": "read-out: Growth IC50 (M) in PAE"}, "PAE": {"tested_on": "PAE", "test": "Apoptosis in PAE", "format": "cell-based, porcine", "conditions": "PAE cells"}, "PAE cells [2]": {"tested_on": "PAE cells", "test": "Fluorescence-release cytotoxicity assay", "conditions": "endothelial cells; less than 10% is considered basal level"}, "endothelial cells": {"tested_on": "endothelial cells", "test": "Primary screening: cell-based growth HTS and tube formation HTS (bioactivity class)", "conditions": "HTS at 1 μM final concentration"}}, "data": [{"substance": "gold(1+); 1-(2,3,4-triaza-5- azanidacyclopenta-1,3-dien-1-yl)-2,3,4- triaza-5-azanidacyclopenta-1,3-diene; triphenylphosphane", "values": [{"measurement": "IC50", "setting": "PAE cells [1]", "result": "3.58e-10", "unit": "M"}, {"measurement": "Apoptosis PAE (RFU)", "setting": "PAE", "result": 0.9062, "unit": "RFU"}, {"measurement": "Cytotoxicity (%)", "setting": "PAE cells [2]", "result": 15.66, "unit": "%"}, {"measurement": "Bioactivity", "setting": "endothelial cells", "result": 3}]}]}
